Reference: patent US8093380B2, “Compounds with the bicyclo[4.2.1]nonane system for the treatment of Flaviviridae infections” (Pharmasset, Inc., priority 2002, dated 2012)

Test system: HCV replicon
Test: HCV replicon system in Huh7 cells (real-time RT-PCR of replicon RNA)
Type: cell-based
Details: positive control; concentration not given
Description: The HCV replicon system in Huh7 cells.
Huh7 cells harboring the HCV replicon were cultivated in DMEM medium (high glucose, no pyruvate), supplemented with 10% fetal bovine serum, 1× non-essential amino acids, Pen-Strep-Glu (100 units/liter, 100 microgram/liter, and 2.92 mg/liter, respectively), and G418 (500 to 1000 microgram/milliliter). Antiviral screening assays were also done in the same medium without G418 as follows. To keep the cells in the logarithmic growth phase, cells were seeded in 96-well plates at low density (for example, 1000 cells per well). The test compound was then added immediately after seeding the cells, and they were incubated for 3 to 7 days at 37° C. in an incubator. The medium was then removed, and the cells were prepared for total RNA extraction (replicon RNA+host RNA). Replicon RNA was then amplified in a real-time RT-PCR (Q-RT-PCR) protocol, and quantified.
The observed differences in quantification of replicon RNA are one way to express the antiviral potency of the test compound. […] This can be concluded because the measured threshold-cycle for HCV RT-PCR in both settings was approximately the same. In such experiments, a way to express the antiviral effectiveness of a compound is to subtract the average threshold RT-PCR cycle of the negative control (Ctnegative) from the threshold RT-PCR cycle of the test compound (Cttestcompound). […]

recombinant interferon alfa-2a: recombinant interferon alfa-2a (Roferon-A, Hoffmann-Roche, NJ, USA), positive control [reference compound]
HCV ΔCt: 7
